Measured values from ChEMBL document CHEMBL5726850, “Substituted 1,2,3-triazoles as SMYD inhibitors for treating cancer” (2019).

Biological target: T1, Histone-lysine N-methyltransferase SMYD3 (Homo sapiens, UniProt Q9H7B4)
T1 sequence (Q9H7B4 whole entry): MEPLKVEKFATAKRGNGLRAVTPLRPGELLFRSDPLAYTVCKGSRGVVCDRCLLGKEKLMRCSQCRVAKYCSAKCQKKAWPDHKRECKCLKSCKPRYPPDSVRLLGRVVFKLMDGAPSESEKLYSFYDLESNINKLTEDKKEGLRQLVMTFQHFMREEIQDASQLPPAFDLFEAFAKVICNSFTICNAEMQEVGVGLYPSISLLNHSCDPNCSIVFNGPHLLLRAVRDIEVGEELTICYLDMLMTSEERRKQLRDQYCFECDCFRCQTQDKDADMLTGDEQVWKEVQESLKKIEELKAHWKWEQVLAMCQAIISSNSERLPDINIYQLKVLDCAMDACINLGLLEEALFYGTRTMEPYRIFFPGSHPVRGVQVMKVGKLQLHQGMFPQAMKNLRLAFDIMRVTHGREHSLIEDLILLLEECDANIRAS
Assay: SMYD3 Biochemical Assay: The assays were all performed in a buffer consisting of 25 mM Tris-Cl pH 8.0, 1 mM TCEP, 0.005% BSG, and 0.005% Tween 20, prepared on the day of use. […] DMSO (1 ul) was added to Columns 11, 12, 23, 24, rows A-H for the maximum signal control and 1 ul of SAH, a known product and inhibitor of SMYD3, was added to columns 11, 12, 23, 24, rows I-P for the minimum signal control. A cocktail (40 ul) containing the SMYD3 enzyme was added by Multidrop Combi (Thermo-Fisher). The compounds were allowed to incubate with SMYD3 for 30 min at room temperature, then a cocktail (10 ul) containing SAM and MEKK2 was added to initiate the reaction (final volume=51 ul). […] The assays were stopped by the addition of non-radiolabeled SAM (10 ul) to a final concentration of 100 uM, which dilutes the 3H-SAM to a level where its incorporation into MEKK2 is no longer detectable. Radiolabeled MEKK2 was detected using a scintillation proximity assay (SPA). 10 uL of a 10 mg/mL solution of SPA beads in 0.5 M citric acid was added and the plates centrifuged at 600 rpm for 1 min to precipitate the radiolabeled MEKK2 onto the SPA beads. The plates were then read in a PerkinElmer TopCount plate reader to measure the quantity of 3H-labeled MEKK2 as disintegrations per minute (dpm) or alternatively, referred to as counts per minute (cpm).

IC50: 6.81 µM
Structure (SMILES): C[C@H]1C[C@@H](NC(=O)c2ccc3c(c2)CC(=O)N3)CCN1C(=O)[C@H]1CC[C@H](N)CC1
